This is an account of results in ChEMBL document CHEMBL2203137, “Design, synthesis, biochemical studies, cellular characterization, and structure-based computational studies of small molecules targeting the urokinase receptor” (Bioorg Med Chem, 2012).

Amino acid sequences for entries named in this document (tags omitted).
UniProt Q03405, whole entry: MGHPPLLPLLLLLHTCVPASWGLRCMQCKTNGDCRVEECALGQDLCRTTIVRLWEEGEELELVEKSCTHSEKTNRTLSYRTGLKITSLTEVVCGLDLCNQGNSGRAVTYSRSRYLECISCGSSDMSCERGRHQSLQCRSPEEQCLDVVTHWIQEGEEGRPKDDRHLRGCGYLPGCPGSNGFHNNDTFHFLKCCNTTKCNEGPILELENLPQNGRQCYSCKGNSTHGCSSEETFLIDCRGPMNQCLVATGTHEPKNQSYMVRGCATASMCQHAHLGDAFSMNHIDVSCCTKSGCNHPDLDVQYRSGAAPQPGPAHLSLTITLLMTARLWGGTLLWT

Active and inactive are the calls of the source. The rule behind the calls is not given here.

For the assay, the target named is Urokinase plasminogen activator surface receptor (Homo sapiens, UniProt Q03405). Briefly: Binding affinity to human recombinant soluble urokinase receptor (1 to 277) expressed in Drosophila S2 cells after 15 mins by fluorescence polarization assay. It counts as single protein. A general note: Fluorescence polarisation rises when a labelled molecule tumbles more slowly, as on binding a larger partner.

On to `COC(=O)c1ccc(-c2cc(N3CCCC(C)C3)c3noc4c3c2C(=O)c2ccccc2-4)cc1` (configuration not stated), for which the Kb is 400 nM. Turning to `Cc1cccc(-c2cc(NCC(C)C)c3noc4c3c2C(=O)c2ccccc2-4)c1`, the result was inactive.
